“And” between values parts separate entries of the source, which are not always exact repeats. Equal values may be shown once. Blank lines part the entries; values can stand above or below the substance they belong to.
Columns and labels:
[1] = biological target: MYCWBMtFhuA nanopore sensor (peptide adaptor O - MYCWBM peptide ligand - Gly/Ser tether - tFhuA) (not stated | Escherichia coli); assay: single-channel electrical recording (nanopore sensor, resistive-pulse technique); MYCWBMtFhuA in a planar lipid bilayer, WDR5 added to the cis side; 400 mM KCl, 20 mM Tris-HCl, 1 mM TCEP, pH 7.5; -20 mV
[2] = biological target: MYCWBMtFhuA nanopore sensor (peptide adaptor O - MYCWBM peptide ligand - Gly/Ser tether - tFhuA) (not stated | Escherichia coli); assay: single-channel electrical recording (nanopore sensor, resistive-pulse technique); MYCWBMtFhuA in a planar lipid bilayer, 11.4 µM WDR5 added to the cis side; 300 mM KCl, 20 mM Tris-HCl, 1 mM TCEP, pH 7.5; applied transmembrane potential +20 mV
[3] = biological target: MYCWBMtFhuA nanopore sensor (peptide adaptor O - MYCWBM peptide ligand - Gly/Ser tether - tFhuA) (not stated | Escherichia coli); assay: single-channel electrical recording (nanopore sensor, resistive-pulse technique); MYCWBMtFhuA reconstituted into a planar lipid bilayer, WDR5 added to the cis side; 300 mM KCl, 20 mM Tris-HCl, 1 mM TCEP, pH 7.5, 23 ± 1 °C; applied transmembrane potential -20 mV
[4] = biological target: MYCWBMtFhuA nanopore sensor (peptide adaptor O - MYCWBM peptide ligand - Gly/Ser tether - tFhuA) (not stated | Escherichia coli); assay: single-channel electrical recording (nanopore sensor, resistive-pulse technique); MYCWBMtFhuA in a planar lipid bilayer, 11.4 µM WDR5 added to the cis side; 300 mM KCl, 20 mM Tris-HCl, 1 mM TCEP, pH 7.5; applied transmembrane potential -10 mV
[5] = biological target: MYCWBMtFhuA nanopore sensor (peptide adaptor O - MYCWBM peptide ligand - Gly/Ser tether - tFhuA) (not stated | Escherichia coli); assay: single-channel electrical recording (nanopore sensor, resistive-pulse technique); MYCWBMtFhuA in a planar lipid bilayer, 11.4 µM WDR5 added to the cis side; 300 mM KCl, 20 mM Tris-HCl, 1 mM TCEP, pH 7.5; applied transmembrane potential +40 mV
[6] = biological target: MYCWBMtFhuA nanopore sensor (peptide adaptor O - MYCWBM peptide ligand - Gly/Ser tether - tFhuA) (not stated | Escherichia coli); assay: single-channel electrical recording (nanopore sensor, resistive-pulse technique); MYCWBMtFhuA reconstituted into a planar lipid bilayer, WDR5 added to the cis side; 300 mM KCl, 20 mM Tris-HCl, 1 mM TCEP, pH 7.5, 23 ± 1 °C; applied transmembrane potential -20 mV; remark: listed apart in the source
[7] = biological target: MYCWBMtFhuA nanopore sensor (peptide adaptor O - MYCWBM peptide ligand - Gly/Ser tether - tFhuA) (not stated | Escherichia coli); assay: as above; remark: listed apart in the source
[8] = biological target: MYCWBMtFhuA nanopore sensor (peptide adaptor O - MYCWBM peptide ligand - Gly/Ser tether - tFhuA) (not stated | Escherichia coli); assay: single-channel electrical recording (nanopore sensor, resistive-pulse technique); MYCWBMtFhuA in a planar lipid bilayer, 11.4 µM WDR5 added to the cis side; 300 mM KCl, 20 mM Tris-HCl, 1 mM TCEP, pH 7.5; applied transmembrane potential -40 mV
[9] = biological target: MYCWBMtFhuA nanopore sensor (peptide adaptor O - MYCWBM peptide ligand - Gly/Ser tether - tFhuA) (not stated | Escherichia coli); assay: single-channel electrical recording (nanopore sensor, resistive-pulse technique); MYCWBMtFhuA in a planar lipid bilayer, 11.4 µM WDR5 added to the cis side; 300 mM KCl, 20 mM Tris-HCl, 1 mM TCEP, pH 7.5; applied transmembrane potential +10 mV
[10] = biological target: MYCWBMtFhuA nanopore sensor (peptide adaptor O - MYCWBM peptide ligand - Gly/Ser tether - tFhuA) (not stated | Escherichia coli); assay: single-channel electrical recording (nanopore sensor, resistive-pulse technique); MYCWBMtFhuA in a planar lipid bilayer, WDR5 added to the cis side; 200 mM KCl, 20 mM Tris-HCl, 1 mM TCEP, pH 7.5; -20 mV
[11] = biological target: MYCWBMtFhuA nanopore sensor (peptide adaptor O - MYCWBM peptide ligand - Gly/Ser tether - tFhuA) (not stated | Escherichia coli); assay: single-channel electrical recording (nanopore sensor, resistive-pulse technique); MYCWBMtFhuA in a planar lipid bilayer, WDR5 added to the cis side; 100 mM KCl, 20 mM Tris-HCl, 1 mM TCEP, pH 7.5; -20 mV
[12] = biological target: MYCWBMtFhuA nanopore sensor (peptide adaptor O - MYCWBM peptide ligand - Gly/Ser tether - tFhuA) (not stated | Escherichia coli); assay: single-channel electrical recording (nanopore sensor, resistive-pulse technique); MYCWBMtFhuA in a planar lipid bilayer, WDR5 added to the cis side; 50 mM KCl, 20 mM Tris-HCl, 1 mM TCEP, pH 7.5; -20 mV
[13] = biological target: MYCWBMtFhuA nanopore sensor (human | Escherichia coli); assay: single-channel electrical recording (resistive-pulse, nanopore sensor); as a1 but 400 mM KCl, 20 mM Tris-HCl, 1 mM TCEP, pH 7.5, -20 mV; 11.4 uM WDR5 for the histograms
[14] = biological target: MYCWBMtFhuA nanopore sensor (human | Escherichia coli); assay: single-channel electrical recording (resistive-pulse, nanopore sensor); as a1 but 50 mM KCl, 20 mM Tris-HCl, 1 mM TCEP, pH 7.5, -20 mV; 11.4 uM WDR5 for the histograms
[15] = biological target: MLL4WintFhuA nanopore sensor (human | Escherichia coli); assay: single-channel electrical recording (resistive-pulse, nanopore sensor); single nanopore reconstituted into a planar lipid bilayer, WDR5 added to the cis side; 300 mM KCl, 20 mM Tris-HCl, 1 mM TCEP, pH 7.5, -20 mV, 23 °C; KD = koff/kon
[16] = biological target: MYCWBMtFhuA nanopore sensor (human | Escherichia coli); assay: as above
[17] = biological target: MYCWBMtFhuA nanopore sensor (human | Escherichia coli); assay: single-channel electrical recording (resistive-pulse, nanopore sensor); series of applied voltages from +40 to -40 mV; 300 mM KCl, 20 mM Tris-HCl, 1 mM TCEP, pH 7.5, 11.4 uM WDR5 on the cis side; ln(kon) extrapolated to 0 mV
[18] = biological target: MYCWBMtFhuA nanopore sensor (human | Escherichia coli); assay: single-channel electrical recording (resistive-pulse, nanopore sensor); series of KCl concentrations from 50 to 400 mM, -20 mV, pH 7.5; kon against [KCl] with extrapolation to zero and to infinite [KCl]

Kd [1]: 291 µM and 272 µM and 293 µM | koff [1]: 30 s⁻¹ and 31 s⁻¹ | kon [1]: 100000 M⁻¹ s⁻¹ and 110000 M⁻¹ s⁻¹ | koff [2]: 32 s⁻¹ | kon [2]: 20000 M⁻¹ s⁻¹ | Kd [3]: 192 µM and 197 µM and 203 µM | koff [3]: 26 s⁻¹ | kon [3]: 150000 M⁻¹ s⁻¹ and 160000 M⁻¹ s⁻¹ | koff [4]: 27 s⁻¹ | kon [4]: 60000 M⁻¹ s⁻¹ | koff [5]: 34 s⁻¹ | kon [5]: 8000 M⁻¹ s⁻¹ | koff [6]: 27 s⁻¹ and 25 s⁻¹ and 28 s⁻¹ | kon [7]: 130000 M⁻¹ s⁻¹ and 140000 M⁻¹ s⁻¹ | koff [8]: 23 s⁻¹ | kon [8]: 310000 M⁻¹ s⁻¹ | koff [9]: 30 s⁻¹ | kon [9]: 30000 M⁻¹ s⁻¹ | Kd [10]: 122 µM and 115 µM | koff [10]: 21 s⁻¹ and 19 s⁻¹ and 20 s⁻¹ | kon [10]: 170000 M⁻¹ s⁻¹ and 160000 M⁻¹ s⁻¹ and 180000 M⁻¹ s⁻¹ | Kd [11]: 58 µM and 52 µM and 51 µM | koff [11]: 12 s⁻¹ and 11 s⁻¹ | kon [11]: 220000 M⁻¹ s⁻¹ and 210000 M⁻¹ s⁻¹ | Kd [12]: 24 µM and 26 µM | koff [12]: 7 s⁻¹ and 7.1 s⁻¹ and 6.6 s⁻¹
Substance: WD repeat-containing protein 5 (WDR5), N-terminal truncation WDR5 23-334 (from UniProt P61964 23-334) (domain or fragment)

Kd [13]: 290 µM | bound duration tau-off at 11.4 uM WDR5 [13]: 33 ms | unbound duration tau-on at 11.4 uM WDR5 [13]: 844 ms | Kd [14]: 25 µM | bound duration tau-off at 11.4 uM WDR5 [14]: 153 ms | unbound duration tau-on at 11.4 uM WDR5 [14]: 347 ms | kon-1 (short-lived events) [15]: 140000 M⁻¹ s⁻¹ | Kd [16]: 200 µM | bound duration [16]: 38 ms | bound duration tau-off at 4 uM WDR5 [16]: 40 ms | bound duration tau-off at 7.8 uM WDR5 [16]: 37 ms | bound duration tau-off at 18.1 uM WDR5 [16]: 39 ms | koff [16]: 26 s⁻¹ | kon [16]: 140000 M⁻¹ s⁻¹ | unbound duration tau-on at 4 uM WDR5 [16]: 1560 ms | unbound duration tau-on at 7.8 uM WDR5 [16]: 879 ms | unbound duration tau-on at 18.1 uM WDR5 [16]: 419 ms | kon at 0 mV [17]: 48000 M⁻¹ s⁻¹ | basal kon at infinite [KCl] [18]: < 100000 M⁻¹ s⁻¹ | electrolyte-free kon (intercept of kon against [KCl]) [18]: 290000 M⁻¹ s⁻¹ | fold increase of kon at 50 mM KCl against 400 mM KCl [18]: 3 fold
Substance: WD repeat-containing protein 5, N-terminal truncation (WDR5^23–334) (from UniProt P61964 23-334) (domain or fragment)

Reference: article PMC11308778
